Results from ChEMBL document CHEMBL1150040, “Ring size effect in the PKC inhibitory activities of perhydroazepine analogs of balanol” (Bioorg Med Chem Lett, 1995).

Biological target: T1, Protein kinase C epsilon type (Homo sapiens, UniProt Q02156)
T1 sequence (Q02156 whole entry): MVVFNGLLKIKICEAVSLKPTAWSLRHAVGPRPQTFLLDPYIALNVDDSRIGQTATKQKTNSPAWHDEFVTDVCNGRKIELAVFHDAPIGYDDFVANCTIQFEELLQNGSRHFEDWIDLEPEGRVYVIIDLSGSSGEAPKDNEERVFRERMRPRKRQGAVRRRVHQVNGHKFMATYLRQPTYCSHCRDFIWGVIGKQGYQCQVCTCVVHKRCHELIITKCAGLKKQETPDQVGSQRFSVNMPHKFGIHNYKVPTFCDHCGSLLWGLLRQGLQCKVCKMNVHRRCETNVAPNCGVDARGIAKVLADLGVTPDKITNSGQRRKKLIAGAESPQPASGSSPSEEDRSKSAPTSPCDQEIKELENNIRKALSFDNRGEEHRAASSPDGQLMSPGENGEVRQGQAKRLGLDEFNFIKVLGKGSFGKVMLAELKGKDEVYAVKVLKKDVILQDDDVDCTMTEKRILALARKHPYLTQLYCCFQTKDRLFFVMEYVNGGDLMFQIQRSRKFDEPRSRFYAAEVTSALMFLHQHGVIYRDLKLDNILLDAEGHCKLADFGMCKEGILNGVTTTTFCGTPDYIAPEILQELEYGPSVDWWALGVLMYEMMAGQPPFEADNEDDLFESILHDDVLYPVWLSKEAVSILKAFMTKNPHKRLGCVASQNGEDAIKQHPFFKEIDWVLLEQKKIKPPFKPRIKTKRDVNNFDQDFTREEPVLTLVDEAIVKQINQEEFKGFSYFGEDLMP
Assay: Inhibition of human Protein kinase C epsilon

IC50: 49 nM
Compound: O=C(N[C@@H]1CNCCC[C@H]1OC(=O)c1cc(O)c(C(=O)c2c(O)cccc2C(=O)O)c(O)c1)c1ccc(O)cc1 (racemic) [BALANOL]
